# Biological target: T1, Delta carbonic anhydrase (Conticribra weissflogii, UniProt Q5U9J1)
# T1 sequence (Q5U9J1 whole entry): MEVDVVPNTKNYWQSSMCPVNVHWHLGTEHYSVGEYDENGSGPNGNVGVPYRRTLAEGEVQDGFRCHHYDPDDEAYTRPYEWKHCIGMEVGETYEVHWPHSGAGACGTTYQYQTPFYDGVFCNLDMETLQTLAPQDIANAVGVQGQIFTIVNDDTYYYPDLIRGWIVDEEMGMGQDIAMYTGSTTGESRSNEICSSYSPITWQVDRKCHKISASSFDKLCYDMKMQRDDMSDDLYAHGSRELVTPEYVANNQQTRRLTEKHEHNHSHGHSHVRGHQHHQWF
smiles,measurement,value
Nc1ccc(S(N)(=O)=O)cc1 [SULFANILAMIDE],Ki,181 nM

# Reference: ChEMBL document CHEMBL3098036, “Sulfonamide inhibition studies of the δ-carbonic anhydrase from the diatom Thalassiosira weissflogii” (Bioorg Med Chem Lett, 2014)
